Data taken from patent publication US9000155B2, “Cyclic triazo sodium channel blockers” (University of Greenwich, priority 2009, dated 2015).

System: Sodium Channel, Site 2
Test: Inhibition of binding of [3H]BTX-B to Wistar rat brain

`Nc1nnc(-c2cccc(Cl)c2Cl)c(N)n1` [CEN-1, 3,5-Diamino-6-(2,3-dichlorophenyl)-1,2,4-triazine, reference compound] was tested, and the “[3H]BTX-B binding % inhibition (@ 10 μM)” value (10 μM) was −28% and the IC50 (read-out: [3H]BTX-B binding Extrapolated IC50) was > 200 µM.
